# Reference: patent US20210161997A1, “TREATING DISEASES VIA TARGETED MODULATION OF GENE SIGNALING NETWORKS” (Camp4 Therapeutics Corporation, priority 2018, published 2021)
# Columns and labels:
# [1] = tested on: UGT1A1; experiment: RNA-seq of UGT1A1 expression in compound-treated primary human hepatocytes; assay type: cell-based
# Protocol: (§1) Human hepatocytes were obtained from two donors from Massachusetts General Hospital, namely MGH54 and MGH63, and one donor from Lonza, namely HUM4111B. Cryopreserved hepatocytes were cultured in plating media for 16 hours, transferred to maintenance media for 4 hours. Cultured on serum-free media for 2 hours, then a compound was added. The hepatocytes were maintained on the serum-free media for 16 hours prior to gene expression analysis. Primary human hepatocytes were stored in the vapor phase of a liquid nitrogen freezer (about −130° C.).
# Human hepatocytes cultured as described above were plated in 24-well format, adding 375,000 cells per well in a volume of 500 ul plating medium. Four hours before treatment, cells were washed with PBS and the medium was changed to either: fresh maintenance medium (complete) or modified maintenance medium. […]
# (§2) For mRNA isolation and library prep, the NEBNext Poly(A) mRNA Magnetic Isolation Module and Directional Prep kit was used. RNA isolated from cells above was quantified, and prepared in […] of each sample in 50 μl of nuclease-free water. […]
# Standard QC were applied (read integrity, mapping statistics, library complexity, fragment bias) to remove unsatisfactory samples. […] RNA-seq signals were also normalized by read depth and visualized using the UCSC browser. […]
# [2] = tested on: ANGPTL3; experiment: RNA-seq of ANGPTL3 expression in compound-treated primary human hepatocytes; assay type: cell-based; conditions: additional compounds (Table 13)
# Protocol: as §1
# Human hepatocytes cultured as described above were plated in 24-well format, adding 375,000 cells per well in a volume of 500 ul plating medium. Four hours before treatment, cells were washed with PBS and the medium was changed to either: fresh maintenance medium (complete) or modified maintenance medium.
# Compound stocks were prepared at 1000× final concentration and added in a 2-step dilution to the medium to reduce risk of a compound precipitating out of solution when added to the cells, and to ensure reasonable pipetting volumes. […]
# as §2
Compound,UGT1A1 Fold Change (Log2) [1] [Log2],ANGPTL3-LINEAR FOLD CHANGE [2]
CCOC(=O)c1cncn1[C@H](C)c1ccccc1 [Etomidate],0.56,
Ibutilide Fumarate,,0.4538
CC1(C)CCC(C)(C)c2cc(C(=O)Nc3ccc(C(=O)O)cc3)ccc21 [AM 580],,0.3737
